## Curated experimental data: water solubility values

From the experimental data distributed with OPERA 2.9.

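The OPERA project collected these measurements from public sources as training and test data for property models. One number stands for a compound and property, with no spread given. How each value was measured is not recorded, so precision varies. A value may pool stereoisomers or salt forms, and the file does not say which form was measured. Some entries may be limits or estimates that an upstream database listed as plain numbers.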

Solubility in water is on a log10 molar scale (set defined at 25 °C).

structure (SMILES)	log solubility (log10 mol/L)
Cc1cc(O)c(C(C)(C)C)cc1C(C)CC(c1cc(C(C)(C)C)c(O)cc1C)c1cc(C(C)(C)C)c(O)cc1C (stereo not given)	-7.134
On1nnc2ccccc21	-1.507
CCCCCCCC(=O)CC(=O)c1ccccc1	-5.804
O=C(Nc1nnc[nH]1)c1ccccc1O	-4.663
CC(=O)NCCCS(=O)(=O)O	-0.984
Nc1ccc(O)cc1[N+](=O)[O-]	-1.834
CCCCOCCOC(=O)CCCCC(=O)OCCOCCCC	-3.535
Cc1c(NC(=O)Nc2ccccc2)c(=O)n(-c2ccccc2)n1C	-2.304
C=S(=C)(Cl)c1cccc2c1C=CC(=[N+]=[N-])C2=O	-1.779
CC(C)CC(=O)C(=O)O	-0.609
C=C(C)CC1CCCCCCCCCCC1=O (stereo not given)	-5.17
OCc1c2ccccc2cc2ccccc12	-3.921
COC(=O)c1ccc(C(=O)Nc2cc(Cl)ccc2Cl)cc1N	-5.79
O=C(/C=C/c1ccc(O)c(O)c1)N[C@@H](Cc1ccc(O)cc1)C(=O)O	-2.934
O=C1c2ccccc2-c2ccc3c4ccc5c6c(ccc(c7ccc1c2c73)c64)C(=O)c1ccccc1-5	-5.513
OC1CCCCCCCCCCC1	-3.796
CCCCCCCCCCCC(=O)N(C)CC(=O)OC(C)C	-5.593
CCOC(=O)Cn1cnc2c1c(=O)n(C)c(=O)n2C	-1.539
CC[C@@H](N)C(=O)N[C@H](CC)C(=O)O	-1.297
O=C(O)CSc1nc2ccccc2s1	-3.229
c1scc2c1OCCO2	-1.773
CCCCC(CC)CNCC(CC)CCCC (stereo not given)	-3.73
CN(C)S(=O)(=O)Nc1ccccc1	-2.19
CCCCCCCCCCCCCCCCCCCCCC(=O)NCCCN(C)C	-4.674
CNC(=O)c1cc(Oc2ccc(N)c(F)c2)ccn1	-3.138
O=C(O)CNCCNCC(=O)O	-1.311
Cn1c(=O)c2c([nH]c(=O)n2C)n(C)c1=O	-1.582
Clc1cc(Cl)cc(Oc2ccc(Cl)c(Cl)c2)c1	-7.32
CC1(C)COC2(CC[C@H]3[C@@H]4CCC5=CC6(CC[C@@H]5[C@H]4C(=O)C[C@@]32C)SCCS6)OC1	-7.245
CC(C)OC(=O)N[C@H](C(=O)N[C@H](C)c1nc2ccc(F)cc2s1)C(C)C	-4.46
Cc1[nH]n(-c2ccc([N+](=O)[O-])cc2)c(=O)c1[N+](=O)[O-]	-1.9
CC1(C)CC(CN)CC(C)(C)N1O.N.[Cl-].[Cl-].[Pt+2]	-3.069
CCCC1CCC(C2CCC(c3ccc(OCC)c(F)c3F)CC2)CC1 (stereo not given)	-5.607
CCNc1nc(CC)c(C(=O)NC(C#N)c2cccs2)s1 (stereo not given)	-4.41
CCCCCCCCCCCCCCCCCCP(=O)(OC)OC	-5.53
CCCCc1nc(CCCC)n(Cc2ccc(-c3ccccc3-c3nn[nH]n3)nc2)n1	-4.796
C=COCCCCOC=C	-2.648
CC(=O)OCc1ccc2c(c1)OCO2	-2.25
CC(C)(C)NC[C@H](O)COc1cccc2c1CCCC2=O	-3.065
CC(C)c1cc(O)c(=O)ccc1Br	-3.67
O=C1c2ccccc2C(=O)c2c1ccc1nc(-c3cc(Cl)c(-c4nc5ccc6c(c5[nH]4)C(=O)c4ccccc4C6=O)cc3Cl)[nH]c21	-4.525
C#C[C@]1(O)CC[C@H]2[C@@H]3CCc4cc(OC)ccc4[C@H]3CC[C@@]21C	-4.916
Clc1ccc(Oc2cccc(Cl)c2Cl)c(Cl)c1	-6.65
CC1=CC(=O)[C@@H](C(C)C)CC1	-1.788

7 of these entries, quoted again:

| structure (SMILES) | log solubility (log10 mol/L) |
|---|---|
| O=C(Nc1nnc[nH]1)c1ccccc1O | -4.663 |
| CC(C)c1cc(O)c(=O)ccc1Br | -3.67 |
| O=C1c2ccccc2C(=O)c2c1ccc1nc(-c3cc(Cl)c(-c4nc5ccc6c(c5[nH]4)C(=O)c4ccccc4C6=O)cc3Cl)[nH]c21 | -4.525 |
| O=C(O)CSc1nc2ccccc2s1 | -3.229 |
| Cc1c(NC(=O)Nc2ccccc2)c(=O)n(-c2ccccc2)n1C | -2.304 |
| Cc1cc(O)c(C(C)(C)C)cc1C(C)CC(c1cc(C(C)(C)C)c(O)cc1C)c1cc(C(C)(C)C)c(O)cc1C (stereo not given) | -7.134 |
| CC1(C)CC(CN)CC(C)(C)N1O.N.[Cl-].[Cl-].[Pt+2] | -3.069 |